Assay: Inhibition of Influenza C virus C/JJ/50 9-SOAE expressed in Sf9 cells assessed as inhibition of hydrolysis of pNPA at 2 mM

## C=CCO[C@]1(C(=O)O)C[C@H](O)[C@@H](NC(C)=O)[C@H]([C@H](O)[C@H](O)COC)O1
  inhibition: 7.05%

Source: ChEMBL document CHEMBL1811860, “Synthesis and inhibitory activity of sialic acid derivatives targeted at viral sialate-O-acetylesterases” (Eur J Med Chem, 2011)
